Counter-ions that a name gives are not always drawn. Values belong to the compound of their own block, whether it stands above or below them.
Tests used:
[1] = target: Beta-2 adrenergic receptor (Homo sapiens, UniProt P07550)
[2] = target: Alpha-2B adrenergic receptor (Homo sapiens, UniProt P18089)
[3] = target: Histamine H1 receptor (Homo sapiens, UniProt P35367)
[4] = target: 5-hydroxytryptamine receptor 2A (Rattus norvegicus, UniProt P14842)
[5] = target: Alpha-2C adrenergic receptor (Homo sapiens, UniProt P18825)
[6] = target: 5-hydroxytryptamine receptor 1D (Homo sapiens, UniProt P28221)
[7] = target: T1, 5-hydroxytryptamine receptor 1F (Homo sapiens, UniProt P30939)
T1 sequence (P30939 whole entry): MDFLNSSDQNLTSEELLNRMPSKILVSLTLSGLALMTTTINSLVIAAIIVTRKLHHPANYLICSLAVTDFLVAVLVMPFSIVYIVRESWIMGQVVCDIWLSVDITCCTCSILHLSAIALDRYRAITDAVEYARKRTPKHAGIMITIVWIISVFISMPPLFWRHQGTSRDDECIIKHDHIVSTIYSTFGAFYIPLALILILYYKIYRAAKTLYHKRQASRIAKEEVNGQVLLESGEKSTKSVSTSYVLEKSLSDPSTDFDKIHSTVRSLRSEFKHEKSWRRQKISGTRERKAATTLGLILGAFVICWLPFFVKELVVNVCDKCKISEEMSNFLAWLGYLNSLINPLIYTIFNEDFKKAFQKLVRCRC

Chains of the proteins cited; added tags and fusions are not shown. Lines headed by an entry give the natural chain unless they say otherwise; changes in a name come on top.
UniProt P07550, whole entry: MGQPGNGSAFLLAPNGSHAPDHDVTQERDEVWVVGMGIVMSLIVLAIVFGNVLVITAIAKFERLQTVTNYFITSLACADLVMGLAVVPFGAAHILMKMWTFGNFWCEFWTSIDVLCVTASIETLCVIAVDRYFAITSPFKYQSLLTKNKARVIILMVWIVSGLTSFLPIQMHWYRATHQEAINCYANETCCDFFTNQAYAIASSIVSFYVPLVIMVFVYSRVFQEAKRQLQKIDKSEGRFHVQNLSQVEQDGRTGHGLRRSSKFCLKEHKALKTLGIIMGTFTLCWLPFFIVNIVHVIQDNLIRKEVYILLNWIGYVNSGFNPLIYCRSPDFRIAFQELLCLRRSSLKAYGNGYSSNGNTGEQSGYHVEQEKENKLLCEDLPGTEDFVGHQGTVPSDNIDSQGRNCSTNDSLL
UniProt P18089, whole entry: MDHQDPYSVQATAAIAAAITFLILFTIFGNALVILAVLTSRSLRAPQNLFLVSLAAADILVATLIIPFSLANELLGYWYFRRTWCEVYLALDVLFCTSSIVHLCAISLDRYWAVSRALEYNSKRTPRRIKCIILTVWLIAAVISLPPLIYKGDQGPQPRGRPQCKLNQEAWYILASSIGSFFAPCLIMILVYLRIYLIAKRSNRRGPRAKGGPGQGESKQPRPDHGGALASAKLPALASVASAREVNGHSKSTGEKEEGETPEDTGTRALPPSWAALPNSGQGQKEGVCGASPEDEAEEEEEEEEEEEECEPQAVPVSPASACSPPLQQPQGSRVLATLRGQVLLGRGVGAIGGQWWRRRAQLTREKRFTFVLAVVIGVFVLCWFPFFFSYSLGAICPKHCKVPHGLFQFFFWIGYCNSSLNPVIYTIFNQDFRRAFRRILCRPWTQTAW
UniProt P35367, whole entry: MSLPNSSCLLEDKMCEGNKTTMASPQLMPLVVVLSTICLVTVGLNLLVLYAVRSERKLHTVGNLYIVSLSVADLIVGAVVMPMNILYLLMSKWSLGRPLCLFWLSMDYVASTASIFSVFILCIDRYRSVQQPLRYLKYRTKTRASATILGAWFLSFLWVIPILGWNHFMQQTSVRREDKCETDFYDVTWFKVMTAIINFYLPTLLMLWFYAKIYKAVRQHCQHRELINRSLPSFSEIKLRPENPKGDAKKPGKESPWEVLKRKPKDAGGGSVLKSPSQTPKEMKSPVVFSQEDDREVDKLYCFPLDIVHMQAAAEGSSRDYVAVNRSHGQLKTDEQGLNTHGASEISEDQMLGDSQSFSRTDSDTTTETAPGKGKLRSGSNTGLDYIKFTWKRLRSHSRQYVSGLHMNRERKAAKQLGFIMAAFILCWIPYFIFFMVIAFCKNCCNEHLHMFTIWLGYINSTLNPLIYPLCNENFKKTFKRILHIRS
UniProt P14842, whole entry: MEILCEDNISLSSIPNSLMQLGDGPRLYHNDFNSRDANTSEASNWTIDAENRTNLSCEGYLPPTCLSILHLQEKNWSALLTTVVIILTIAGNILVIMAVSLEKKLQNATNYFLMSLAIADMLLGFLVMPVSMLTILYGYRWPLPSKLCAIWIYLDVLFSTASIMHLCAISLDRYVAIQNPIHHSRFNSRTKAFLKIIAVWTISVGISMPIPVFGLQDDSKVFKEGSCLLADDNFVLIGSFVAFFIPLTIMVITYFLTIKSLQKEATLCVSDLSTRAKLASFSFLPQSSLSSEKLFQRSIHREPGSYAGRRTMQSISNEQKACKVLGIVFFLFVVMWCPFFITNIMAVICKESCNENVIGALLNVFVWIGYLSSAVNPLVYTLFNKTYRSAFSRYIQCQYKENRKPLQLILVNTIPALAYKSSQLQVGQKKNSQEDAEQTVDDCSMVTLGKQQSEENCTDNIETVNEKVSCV
UniProt P18825, whole entry: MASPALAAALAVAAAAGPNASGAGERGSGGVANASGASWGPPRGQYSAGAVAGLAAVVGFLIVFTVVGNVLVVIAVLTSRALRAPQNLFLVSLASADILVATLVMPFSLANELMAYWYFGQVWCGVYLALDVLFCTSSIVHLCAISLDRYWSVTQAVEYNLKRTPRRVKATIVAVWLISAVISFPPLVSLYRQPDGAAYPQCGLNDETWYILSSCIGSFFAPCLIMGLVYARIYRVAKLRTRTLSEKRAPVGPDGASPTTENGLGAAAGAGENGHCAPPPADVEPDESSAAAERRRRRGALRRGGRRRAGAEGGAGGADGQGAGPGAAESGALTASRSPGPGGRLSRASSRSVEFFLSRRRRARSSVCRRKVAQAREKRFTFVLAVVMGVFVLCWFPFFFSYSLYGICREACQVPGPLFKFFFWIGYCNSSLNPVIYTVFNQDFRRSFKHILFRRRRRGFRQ
UniProt P28221: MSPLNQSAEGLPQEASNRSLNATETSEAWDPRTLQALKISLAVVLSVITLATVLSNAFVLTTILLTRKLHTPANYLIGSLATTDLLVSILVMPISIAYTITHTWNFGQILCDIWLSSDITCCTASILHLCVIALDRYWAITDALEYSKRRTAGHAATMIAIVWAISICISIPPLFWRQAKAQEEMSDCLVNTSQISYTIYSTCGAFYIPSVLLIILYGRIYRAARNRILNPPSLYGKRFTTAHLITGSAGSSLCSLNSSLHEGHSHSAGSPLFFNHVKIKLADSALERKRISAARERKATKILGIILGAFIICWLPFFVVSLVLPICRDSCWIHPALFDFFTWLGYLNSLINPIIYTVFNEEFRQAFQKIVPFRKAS
UniProt P28222, whole entry: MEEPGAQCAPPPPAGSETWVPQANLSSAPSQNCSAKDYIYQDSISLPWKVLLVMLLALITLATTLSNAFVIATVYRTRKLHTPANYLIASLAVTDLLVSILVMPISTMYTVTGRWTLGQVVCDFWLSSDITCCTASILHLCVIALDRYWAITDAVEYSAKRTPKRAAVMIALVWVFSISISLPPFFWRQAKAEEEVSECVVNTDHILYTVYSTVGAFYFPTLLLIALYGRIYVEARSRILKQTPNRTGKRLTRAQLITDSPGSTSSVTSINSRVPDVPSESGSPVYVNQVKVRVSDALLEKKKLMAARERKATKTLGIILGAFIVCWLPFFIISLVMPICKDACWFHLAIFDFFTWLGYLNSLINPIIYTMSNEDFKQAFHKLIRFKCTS
UniProt P28566: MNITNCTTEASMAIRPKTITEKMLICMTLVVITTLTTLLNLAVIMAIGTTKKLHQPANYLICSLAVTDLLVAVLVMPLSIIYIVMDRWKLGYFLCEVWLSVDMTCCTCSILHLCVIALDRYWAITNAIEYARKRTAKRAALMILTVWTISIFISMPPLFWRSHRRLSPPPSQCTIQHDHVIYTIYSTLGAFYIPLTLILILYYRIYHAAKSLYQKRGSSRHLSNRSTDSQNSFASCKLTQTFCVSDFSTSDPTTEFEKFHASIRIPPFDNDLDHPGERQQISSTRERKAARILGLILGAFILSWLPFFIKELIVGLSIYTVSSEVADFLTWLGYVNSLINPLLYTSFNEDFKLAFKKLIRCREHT
UniProt P31645, whole entry: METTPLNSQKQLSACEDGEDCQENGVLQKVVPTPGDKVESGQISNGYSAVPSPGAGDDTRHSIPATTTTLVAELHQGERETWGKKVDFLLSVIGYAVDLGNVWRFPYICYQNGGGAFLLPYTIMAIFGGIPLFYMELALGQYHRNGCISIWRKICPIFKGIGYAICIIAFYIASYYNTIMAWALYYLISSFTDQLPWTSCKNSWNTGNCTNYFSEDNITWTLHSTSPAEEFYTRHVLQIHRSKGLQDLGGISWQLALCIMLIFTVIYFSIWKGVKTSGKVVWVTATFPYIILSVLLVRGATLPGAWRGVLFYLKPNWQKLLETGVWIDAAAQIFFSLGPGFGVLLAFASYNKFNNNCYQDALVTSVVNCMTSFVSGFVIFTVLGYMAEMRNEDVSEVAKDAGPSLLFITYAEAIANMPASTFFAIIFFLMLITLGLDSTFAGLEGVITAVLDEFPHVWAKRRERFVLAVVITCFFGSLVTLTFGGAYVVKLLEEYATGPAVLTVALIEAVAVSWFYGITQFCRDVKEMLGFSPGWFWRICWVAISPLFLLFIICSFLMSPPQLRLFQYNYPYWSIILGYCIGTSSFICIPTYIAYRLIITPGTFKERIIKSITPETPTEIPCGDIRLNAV
UniProt P23977, whole entry: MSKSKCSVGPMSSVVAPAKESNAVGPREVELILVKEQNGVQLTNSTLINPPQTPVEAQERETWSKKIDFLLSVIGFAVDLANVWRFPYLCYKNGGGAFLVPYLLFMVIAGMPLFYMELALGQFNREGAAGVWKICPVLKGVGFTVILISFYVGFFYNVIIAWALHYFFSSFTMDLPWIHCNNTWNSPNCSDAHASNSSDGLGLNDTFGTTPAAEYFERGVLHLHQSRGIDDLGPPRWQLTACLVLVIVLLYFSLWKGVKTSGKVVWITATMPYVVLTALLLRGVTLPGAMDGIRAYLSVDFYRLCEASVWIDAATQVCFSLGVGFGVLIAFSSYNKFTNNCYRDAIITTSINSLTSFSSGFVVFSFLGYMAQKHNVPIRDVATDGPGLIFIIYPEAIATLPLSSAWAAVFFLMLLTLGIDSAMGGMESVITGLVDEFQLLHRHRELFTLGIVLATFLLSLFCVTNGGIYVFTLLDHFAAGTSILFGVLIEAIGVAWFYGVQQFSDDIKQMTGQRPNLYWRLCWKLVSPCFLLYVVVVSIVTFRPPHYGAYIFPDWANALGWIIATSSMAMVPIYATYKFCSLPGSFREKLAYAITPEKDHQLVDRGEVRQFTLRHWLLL
UniProt P33535, whole entry: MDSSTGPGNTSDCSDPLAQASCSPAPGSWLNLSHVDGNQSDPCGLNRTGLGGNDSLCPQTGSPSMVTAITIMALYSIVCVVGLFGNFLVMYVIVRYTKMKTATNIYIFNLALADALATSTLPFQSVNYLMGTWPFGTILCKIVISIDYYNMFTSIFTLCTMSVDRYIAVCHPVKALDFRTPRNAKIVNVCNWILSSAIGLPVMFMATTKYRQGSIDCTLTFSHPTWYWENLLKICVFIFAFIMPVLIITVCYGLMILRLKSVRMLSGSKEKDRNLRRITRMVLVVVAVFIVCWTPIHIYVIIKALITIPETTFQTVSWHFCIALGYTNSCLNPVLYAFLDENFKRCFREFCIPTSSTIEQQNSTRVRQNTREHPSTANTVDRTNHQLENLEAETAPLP

[8] = target: 5-hydroxytryptamine receptor 1B (Homo sapiens, UniProt P28222)
[9] = target: 5-hydroxytryptamine receptor 1E (Homo sapiens, UniProt P28566)
[10] = target: Sodium-dependent serotonin transporter (Homo sapiens, UniProt P31645)
[11] = target: Sodium-dependent dopamine transporter (Rattus norvegicus, UniProt P23977)
[12] = target: Mu-type opioid receptor (Rattus norvegicus, UniProt P33535)

Compound: O=C1NCCN1CCN1CCC(c2cn(-c3ccc(F)cc3)c3ccc(Cl)cc23)CC1 [1-[2-[4-[5-chloro-1-(4-fluorophenyl)-indol-3-yl]-1-piperidyl]ethyl]imidazolidin-2-one]
- Ki [1]: 5000 nM
- Ki [2]: 450 nM

Compound: CN(C)CCOC1=Cc2ccccc2Sc2ccc(Cl)cc21 [2-Chloro-11-(2-(dimethylamino)ethoxy)dibenzo(b,f)thiepin]
- Ki [3]: 0.62 nM
- Ki [4]: 0.91 nM
- Ki [5]: 150 nM

Compound: OCCOCCN1CCN(C2=Nc3ccccc3Sc3ccccc32)CC1 [2-[2-(4-dibenzo[b,f][1,4]thiazepin-11-ylpiperazin-1-yl)ethoxy]ethanol]
- Ki [6]: 5000 nM
- Ki [7]: 2240 nM

- Ki [8]: 270 nM
- Ki [9]: 5000 nM
Compound: O=C(CCCN1CCC(O)(c2ccc(Cl)cc2)CC1)c1ccc(F)cc1 [4-[4-(4-Chloro-phenyl)-4-hydroxy-piperidin-1-yl]-1-(4-fluoro-phenyl)-butan-1-one;propionate(HCl)]

Compound: CN1CCN(C2=c3ccccc3=Nc3ccc(Cl)cc3N2)CC1 [6-chloro-10-(4-methylpiperazin-1-yl)-2,9-diazatricyclo[9.4.0.0^{3,8}]pentadeca-1,3(8),4,6,10,12,14-heptaene]
- Ki [3]: 0.23 nM
- Ki [2]: 22 nM
- Ki [10]: > 1000 nM

Compound: O=C1NCN(c2ccccc2)C12CCN(CC1COc3ccccc3O1)CC2 (stereo unspecified) [8-(2,3-Dihydro-benzo[1,4]dioxin-2-ylmethyl)-1-phenyl-1,3,8-triaza-spiro[4.5]decan-4-one]
- Ki [2]: 1.8 nM

- Ki [4]: 1.9 nM
Compound: Cc1cc2c(s1)=Nc1ccccc1NC=2N1CCN(C)CC1 [CAS_132539-06-1]

- Ki [11]: > 1000 nM
- Ki [12]: > 1000 nM
Compound: CN1CC2c3ccccc3Oc3ccc(Cl)cc3C2C1 (stereo unspecified) [NSC_163091]

From BindingDB's records for doi:10.1007/bf02245606 (Janssen Research Foundation, 1996)
